{
  "sequences": {"note": "Sequences of proteins named here, by UniProt entry; tags and fusion partners are left off. Residues count along the entry.", "UniProt P00533, 25-1210 S811F": "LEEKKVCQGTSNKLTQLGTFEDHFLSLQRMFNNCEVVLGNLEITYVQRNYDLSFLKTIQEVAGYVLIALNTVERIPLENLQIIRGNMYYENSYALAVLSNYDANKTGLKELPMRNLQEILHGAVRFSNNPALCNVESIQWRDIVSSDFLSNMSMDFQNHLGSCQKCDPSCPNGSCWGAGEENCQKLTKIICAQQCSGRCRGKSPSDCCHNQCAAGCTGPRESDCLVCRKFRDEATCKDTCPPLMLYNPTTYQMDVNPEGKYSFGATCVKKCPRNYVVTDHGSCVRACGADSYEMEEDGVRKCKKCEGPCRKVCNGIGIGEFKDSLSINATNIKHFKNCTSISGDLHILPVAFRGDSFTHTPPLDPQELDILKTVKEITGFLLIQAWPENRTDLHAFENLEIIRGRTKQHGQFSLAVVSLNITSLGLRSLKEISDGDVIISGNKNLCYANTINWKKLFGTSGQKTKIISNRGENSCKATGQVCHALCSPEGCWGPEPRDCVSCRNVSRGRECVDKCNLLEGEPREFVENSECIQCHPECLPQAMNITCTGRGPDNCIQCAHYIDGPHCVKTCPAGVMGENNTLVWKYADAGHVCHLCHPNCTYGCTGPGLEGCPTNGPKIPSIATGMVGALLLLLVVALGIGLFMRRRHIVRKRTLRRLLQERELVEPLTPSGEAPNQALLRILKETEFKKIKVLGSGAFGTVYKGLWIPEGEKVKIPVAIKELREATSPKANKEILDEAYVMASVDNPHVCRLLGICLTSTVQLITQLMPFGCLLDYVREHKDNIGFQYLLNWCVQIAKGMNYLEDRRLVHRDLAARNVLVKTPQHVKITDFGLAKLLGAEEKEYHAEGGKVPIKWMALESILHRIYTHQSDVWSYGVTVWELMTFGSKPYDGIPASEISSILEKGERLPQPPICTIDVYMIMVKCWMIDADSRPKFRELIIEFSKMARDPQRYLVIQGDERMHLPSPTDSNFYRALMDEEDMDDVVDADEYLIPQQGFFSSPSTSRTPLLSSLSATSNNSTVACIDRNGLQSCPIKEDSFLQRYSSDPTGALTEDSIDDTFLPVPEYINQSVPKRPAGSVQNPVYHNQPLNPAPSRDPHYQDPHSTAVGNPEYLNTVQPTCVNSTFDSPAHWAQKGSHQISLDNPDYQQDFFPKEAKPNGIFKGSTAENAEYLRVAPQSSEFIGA"},
  "source": "patent US20260240847A1",
  "about": "“COMPOUNDS WITH ANTI-TUMOR ACTIVITY AGAINST CANCER CELLS BEARING TYROSINE KINASE INHIBITOR RESISTANT EGFR MUTATIONS” (BOARD OF REGENTS, THE UNIVERSITY OF TEXAS SYSTEM, priority 2019, published 2026)",
  "target": "EGFR S811F (Homo sapiens, UniProt P00533, S811F)",
  "assay": "Ba/F3 cell viability, Cell Titer Glo",
  "settings": "read-out: IC50 Values; Ba/F3 cells expressing EGFR S811F, 72 hours",
  "data": [
    {"smiles": "Cc1cc(C(=O)Nc2nc3cccc(Cl)c3n2[C@@H]2CCCCN(C(=O)/C=C/CN(C)C)C2)ccn1", "values": [
      {"measurement": "IC50", "result": 743, "unit": "nM"}
    ]}
  ]
}
